# Antibody variant affinities, Ab-14 light chain, assay B

All variants were tested on one target, the spike HR2 peptide PDVDLGDISGINAS (SARS-CoV-2).

The variants keep the heavy chain, the linker and the frameworks of Ab-14 (scFv order VH, a 15-residue (Gly4Ser)3 linker, VL).
VH: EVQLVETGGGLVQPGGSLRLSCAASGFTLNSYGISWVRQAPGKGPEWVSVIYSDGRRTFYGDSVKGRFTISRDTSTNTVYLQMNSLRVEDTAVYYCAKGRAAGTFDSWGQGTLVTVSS
VL: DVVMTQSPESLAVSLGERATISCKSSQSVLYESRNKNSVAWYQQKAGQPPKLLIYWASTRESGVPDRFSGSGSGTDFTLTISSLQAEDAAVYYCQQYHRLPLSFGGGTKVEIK

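These sequences belong to a second round, designed from the earlier measurements on random variants of the parent. Group labels follow the data file (En: ensemble of fine-tuned language models; GP: Gaussian process model; HC: hill climbing; Gen: genetic algorithm; Gibbs: Gibbs sampling; a sequence that several methods proposed may carry one label only). AlphaSeq pools MATa yeast showing the antibodies with MATalpha yeast showing the peptide. Binding brings cells together so that they mate, and sequencing counts the barcode pairs among the diploids. Each replicate has its own calibration line, from reference interactions of the BCL2 family. The assay was run in six technical replicates.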

The parent's light chain CDRs are KSSQSVLYESRNKNSVA, WASTRES, QQYHRLPLS; each variant's own CDRs replace them letter for letter. This list holds designs with more than six substitutions. Values are apparent Kd, the geometric mean of the replicates that gave a signal; lower means stronger binding. A pair that was not seen in any replicate is written "no signal"; this usually means weak binding, but a binder can also be missed. A sequence measured in both rounds can read differently, since the two assays cover different ranges.

With NISESMYFQSRMKNNIA | EVSTRER | QHYHRLPLS [En_HC] the result was 19 nM (6 of 6 replicates; controls 2 of 18).
With KLQQLMLYESRMKNNVA | NASTRGS | QQYHRLPLS [GP_Gibbs] the result was 6.3 nM (6 of 6 replicates; controls 1 of 18).
With TISQVMNTLTRHGNNVA | DLAEREV | QQYFRLPLS [En_Gen] the result was 3.1 nM (6 of 6 replicates; controls 0 of 18).
With KLQQSVDYESRNKNAVA | NASTREQ | QQYHQLPLS [GP_Gibbs] the result was 890 pM (6 of 6 replicates; controls 0 of 18).
With MMSQMFEGLSTSKNPVA | QVSQREE | QQYHRLPLS [En_HC] the result was 3.4 nM (6 of 6 replicates; controls 1 of 18).
With KVDQWEPYGSRNKNSVA | SASQRCS | QQYHRLPLS [GP_Gibbs] the result was 3.0 nM (6 of 6 replicates; controls 2 of 18).
With KLGQMTAIESSNLNSVA | QMDTRES | QQYHRLPLS [En_HC] the result was 5.2 nM (6 of 6 replicates; controls 0 of 18).
With SLSGIMRLENKVSNSIA | EMTTRGE | QQYDRLPLS [En_Gen] the result was 10 nM (6 of 6 replicates; controls 1 of 18).
With TLGQVTMQLSVNKNSVA | DANTSGD | QQYDRLPLS [En_HC] the result was 380 nM (5 of 6 replicates; controls 2 of 18).
With KLTMITGTEKVHGNNVA | EMETRER | QQYNRLPLA [En_Gen] the result was 1.4 nM (6 of 6 replicates; controls 0 of 18).
With KLGAWMYWQTEAKRAIA | QDEMRVH | QQYDRLPLM [En_Gibbs] the result was 88 nM (6 of 6 replicates; controls 1 of 18).
With KIQQFYEYESRNKNSVA | SASTRMS | QQYHRLPLS [GP_Gibbs] the result was 1.9 nM (6 of 6 replicates; controls 1 of 18).
With TIGDVTRMESNKKSSIA | DMSNRAA | QQYHRLPIS [En_HC] the result was 14 nM (6 of 6 replicates; controls 1 of 18).
With TFNLEYQGHNEDHNNIA | ETENKTD | QQYARLPLI [En_Gibbs] the result was 730 nM (3 of 6 replicates; controls 0 of 18).
With IISQSALGEYHNKNSVA | QTSERGS | QQYDRLPLS [En_HC] the result was 2.2 nM (6 of 6 replicates; controls 1 of 18).
With HINTALKTVDDHYSNVA | EQRLTSE | QQYFRLPLS [En_Gibbs] the result was 2.2 nM (6 of 6 replicates; controls 0 of 18).
With MMSQMFEGLSTVKNPVA | QVSTREE | QQYHRLPLS [En_HC] the result was 27 nM (6 of 6 replicates; controls 0 of 18).
With KLSQTHGMEMVNRNSVA | ELVTRMS | QQYNRLPLS [En_Gen] the result was 150 nM (1 of 6 replicates; controls 0 of 18).
With KQQFSVLMESRQCNSVA | EASTREE | QQYHRLPLS [GP_Gibbs] the result was 17 nM (6 of 6 replicates; controls 2 of 18).
With SLGLVTMLEEYARNNVA | NNSTREE | QQYDRLPLS [En_Gen] the result was 920 nM (5 of 6 replicates; controls 2 of 18).
With KVSEFMRGLMMLKDSIA | DNQTRES | QQYDRLPLS [En_Gen] the result was 89 nM (5 of 6 replicates; controls 1 of 18).
With KVSVSQPYETRNKNSVA | EASTREE | QQYHRLPLS [GP_Gibbs] the result was 1.0 nM (6 of 6 replicates; controls 1 of 18).
With KFSQSKEMVNYEGESIA | GSHTIQE | QQYDRLPLA [En_Gibbs] the result was 8.8 nM (6 of 6 replicates; controls 0 of 18).
With KLMQVTGYESYVRNSVA | QMSTRAE | QDYNRLPLS [En_HC] the result was 6.0 nM (6 of 6 replicates; controls 0 of 18).
With KSSGSVLYEDRMVNSVA | NASQRLE | QQYHRLPLS [GP_Gibbs] the result was 1.8 nM (6 of 6 replicates; controls 1 of 18).
With KLRREADGWNRNEWNIA | DADYRGA | QQYFHLPLC [En_Gibbs] the result was 73 nM (5 of 6 replicates; controls 0 of 18).
With HIMKFMSQEGGARNNVA | GDTKLAQ | QHYHRLPLS [En_Gibbs] the result was 74 nM (3 of 6 replicates; controls 0 of 18).
With KISQSFLMESMNKNSVA | EASTRIW | QQYHRLPLS [GP_Gibbs] the result was 1.5 nM (6 of 6 replicates; controls 0 of 18).
With IITQSVMQESRNKSNVA | NTEERES | QQYDRLPLI [En_HC] the result was 38 nM (6 of 6 replicates; controls 0 of 18).
With KMSQSVDVLDRNKNSVA | NASTREM | QQYHRLPLS [GP_Gibbs] the result was 660 pM (6 of 6 replicates; controls 1 of 18).
With KLQFLGPYEQRNKNSVA | SASTRCS | QQYHRLPLS [GP_Gibbs] the result was 650 pM (6 of 6 replicates; controls 0 of 18).
With KLSQSVRMESFYKNSVA | ENSTREA | QDYDRLPLS [En_HC] the result was 1.8 µM (1 of 6 replicates; controls 0 of 18).
With KIQWYPLGIRGTGSAVA | EAATRYN | QQYMRLPLM [En_Gibbs] the result was 18 nM (6 of 6 replicates; controls 0 of 18).
With KLEQSTWYESRNCNSVA | NASVRES | QQYHRLPLS [GP_Gibbs] the result was 50 nM (6 of 6 replicates; controls 1 of 18).
With KIGDTLNQLMHKKNNVA | DLVTREN | QQYYRLPLS [En_Gen] the result was 2.3 nM (6 of 6 replicates; controls 1 of 18).
With HMSAVTMMGMRHRNSVA | QMTMREN | QQYDRLPLA [En_Gen] the result was 19 nM (6 of 6 replicates; controls 2 of 18).
With IVSQLMLWGMHVKNSIA | EAETRIN | QQYERLPLF [En_Gen] the result was 190 nM (2 of 6 replicates; controls 1 of 18).
With KLSMSWEYESRNSNSVA | HASTRED | QQYHRLPLA [GP_Gibbs] the result was 2.0 nM (6 of 6 replicates; controls 0 of 18).
With QLSGPMVSESKNKNSVA | EFSTRGS | QQYHRLPLS [En_HC] the result was 7.5 nM (6 of 6 replicates; controls 0 of 18).
With KLYQSMGYLSRMKNSIA | DMSRREN | QQYHRLPLS [En_HC] the result was 92 nM (6 of 6 replicates; controls 1 of 18).
With HITYGMMVHGRHSKSIA | QAEERAK | QQYDRLPLI [En_Gen] the result was 22 nM (6 of 6 replicates; controls 0 of 18).
With TVSQVMGMLSHNKNSVA | DMNTRGS | QQYDRLPLS [En_HC] the result was 2.5 nM (6 of 6 replicates; controls 0 of 18).
With MMSMGYLGGMRARNNVA | QEETREK | QQYHRLPLI [En_HC] the result was no signal (0 of 6 replicates; controls 0 of 18).
With TIGQMLMQGIRNRSNVA | EVSQRLN | QQYDRLPLA [En_Gen] the result was 29 nM (6 of 6 replicates; controls 0 of 18).
With KLMGSMQYESRWKNAVA | EASTRES | QQYHRLPLS [GP_Gibbs] the result was 2.5 nM (6 of 6 replicates; controls 0 of 18).
With MLSQMWALGQKVKNSVA | QASMRFN | QQYDRLPLV [En_Gen] the result was 200 nM (5 of 6 replicates; controls 1 of 18).
With NFYMDAAEFVNEDSSIA | DAEISYD | QQYHRLPLV [En_Gibbs] the result was 69 nM (5 of 6 replicates; controls 1 of 18).
With MLTMVADISNKQNNSVA | ELETREN | QQYDRLPLS [En_Gen] the result was 1.6 µM (3 of 6 replicates; controls 2 of 18).
With KLSQLFYKESLNKNNVA | EMTTRGS | QQYDRLPLS [En_HC] the result was 1.0 nM (6 of 6 replicates; controls 0 of 18).
With KLHHYKLGENGMRGSVA | NMTIRDQ | QQYFRLPLF [En_Gibbs] the result was 7.0 nM (6 of 6 replicates; controls 1 of 18).
With TLGASTLMESRNKNNVA | QMSTRES | QQYHRLPLS [En_HC] the result was 240 pM (6 of 6 replicates; controls 0 of 18).

Top 8 of the variants detected in all replicates, tightest first:

Variant TLGASTLMESRNKNNVA | QMSTRES | QQYHRLPLS [En_HC] showed 240 pM (6 of 6 replicates; controls 0 of 18).
Variant KLQFLGPYEQRNKNSVA | SASTRCS | QQYHRLPLS [GP_Gibbs] showed 650 pM (6 of 6 replicates; controls 0 of 18).
Variant KMSQSVDVLDRNKNSVA | NASTREM | QQYHRLPLS [GP_Gibbs] showed 660 pM (6 of 6 replicates; controls 1 of 18).
Variant KLQQSVDYESRNKNAVA | NASTREQ | QQYHQLPLS [GP_Gibbs] showed 890 pM (6 of 6 replicates; controls 0 of 18).
Variant KVSVSQPYETRNKNSVA | EASTREE | QQYHRLPLS [GP_Gibbs] showed 1.0 nM (6 of 6 replicates; controls 1 of 18).
Variant KLSQLFYKESLNKNNVA | EMTTRGS | QQYDRLPLS [En_HC] showed 1.0 nM (6 of 6 replicates; controls 0 of 18).
Variant KLTMITGTEKVHGNNVA | EMETRER | QQYNRLPLA [En_Gen] showed 1.4 nM (6 of 6 replicates; controls 0 of 18).
Variant KISQSFLMESMNKNSVA | EASTRIW | QQYHRLPLS [GP_Gibbs] showed 1.5 nM (6 of 6 replicates; controls 0 of 18).

Empty control strains, which show no peptide, gave a signal in 4% of pairings with all light chain designs; the median was 430 nM and 95% of these signals were weaker than 38 nM. No background was subtracted. For each scFv, signals with the empty controls are counted beside the result. Of ten entries with the parent sequence, four were seen in most replicates (averages 2.2 nM to 240 nM), three in one and three in none, so single entries are noisy. In the paper, a design with two or fewer of six values counts as a poor binder.

Data: MIT Lincoln Laboratory AlphaSeq set, Li et al. 2023, doi:10.1038/s41467-023-39022-2, as distributed in FLAb.